Assay results published in article PMC10552397, “The Golgi stacking protein GRASP55 is targeted by the natural compound prodigiosin” (Cell Communication and Signaling : CCS, 2023).

Tests used:
JUNB = experiment: TPP-TR/RTSA, JUNB; format: binding, Homo sapiens; conditions: abundance, treatment vs control at 36.5 °C
Procedure: (§1) TPP was performed essentially as described, but with major modifications to the TMT labeling sets and statistical data analysis for TPP-TR.
(§2) For thermal proteome profiling temperature range (TPP-TR) experiments, 6*10^6 HeLa wt cells were seeded per 15 cm dish and, on the next day, incubated with 100 nM prodigiosin (final concentration in final 0.1% v/v DMSO in cell culture medium) or 0.1% v/v DMSO in cell culture medium as vehicle control for 6 h. […]
(§3) After temperature treatment, samples were supplemented with lysis buffer (final concentrations: 0.36 U/µL benzonase, 1.5 mM MgCl2, 1 mM Na3VO4, 10 mM NaF, 2.5 mM Na4P2O7, 0.8% w/v NP-40) for 1 h on ice. […] The total protein concentration of the resulting cell extracts containing the fraction of soluble, non-denatured proteins was determined (Pierce 660 nm Protein Assay, BSA as standard). […] The two (37 °C or 50 °C) x ten (concentrations) x three (replicates) = 60 TPP-CCR samples and two (treatment and control) x ten (temperatures) x three (replicates) = 60 TPP-TR samples were analyzed by LC–MS/MS. GRASP55 was additionally quantified from the TPP-TR samples by immunoblotting as described in the respective section. […]

EFEMP1 = target: T1, EFEMP1 (Homo sapiens, UniProt Q12805); experiment: TPP-TR/RTSA, EFEMP1; format: binding; conditions: abundance, treatment vs control at 36.5 °C
T1 construct: endogenous in cells; host or cells: HeLa wt cells
T1 sequence (Q12805 18-493): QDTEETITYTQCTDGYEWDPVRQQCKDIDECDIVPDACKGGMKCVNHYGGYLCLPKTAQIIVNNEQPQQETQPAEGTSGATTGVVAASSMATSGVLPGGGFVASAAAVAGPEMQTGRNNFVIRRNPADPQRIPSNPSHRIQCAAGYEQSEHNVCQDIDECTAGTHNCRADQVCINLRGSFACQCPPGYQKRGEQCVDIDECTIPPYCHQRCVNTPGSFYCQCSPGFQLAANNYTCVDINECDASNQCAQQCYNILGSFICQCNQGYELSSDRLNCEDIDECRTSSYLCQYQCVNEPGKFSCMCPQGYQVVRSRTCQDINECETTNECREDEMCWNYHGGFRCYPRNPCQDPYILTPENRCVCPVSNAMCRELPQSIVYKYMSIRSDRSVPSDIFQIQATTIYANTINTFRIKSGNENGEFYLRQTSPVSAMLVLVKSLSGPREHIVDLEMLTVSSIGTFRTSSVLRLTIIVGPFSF
Procedure: as §1, §2, §3

JUN = experiment: TPP-TR/RTSA, JUN; format: binding, Homo sapiens; conditions: abundance, treatment vs control at 36.5 °C
Procedure: as §1, §2, §3

SDC4 = target: T2, SDC4 (Homo sapiens, UniProt P31431); experiment: TPP-TR/RTSA, SDC4; format: binding; conditions: abundance, treatment vs control at 36.5 °C
T2 construct: endogenous in cells; host or cells: HeLa wt cells
T2 sequence (P31431 19-198): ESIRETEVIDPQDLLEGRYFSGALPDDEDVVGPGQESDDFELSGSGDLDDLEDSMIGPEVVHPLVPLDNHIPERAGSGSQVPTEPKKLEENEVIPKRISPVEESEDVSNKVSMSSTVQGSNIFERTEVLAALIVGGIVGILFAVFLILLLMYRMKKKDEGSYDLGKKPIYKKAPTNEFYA
Procedure: as §1, §2, §3

HeLa wt cells = experiment: Transmission electron microscopy of Golgi apparatus, HeLa wt; format: cell-based; conditions: 10 nM, 24 h, vs DMSO
Procedure: (§4) HeLa wt and HeLa GRASP55 KO cells were seeded into 10 cm dishes. On the next day, cells were treated with 0.1% DMSO, 10 nM prodigiosin or 100 nM prodigiosin for 24 h. After treatment, cells were washed with Dulbecco´s phosphate-buffered saline (DPBS, Thermo Fisher Scientific, Waltham, MA, USA, #14,190,250) and then fixed using 2.5% glutaraldehyde and 4% paraformaldehyde in 0.1 M sodium cacodylate, pH 7.4 overnight at 4 °C. Then, cells were harvested with a cell scraper and centrifuged at 4,000 × g for 5 min. Cell pellets were washed twice with 0.1 M sodium cacodylate buffer, pH 7.2, then heated to 40 °C and embedded into 3% low melting agarose. The agarose was dissolved at 40 °C in a water bath and after aspiration of the supernatant a volume of approximately 10 µL was left, which was resuspended in agarose. After centrifugation at approximately 4,000 x g for 2 min, the samples were covered with 1% OsO4 in 0.1 M sodium cacodylate buffer for 60 min at RT. After washing two times with sodium cacodylate buffer for 10 min and twice with 70% EtOH for 15 min at RT, block contrast was applied using 1% uranyl acetate/1% phosphorotungstic acid in 70% EtOH (freshly prepared and filtered) for 1 h at RT. The samples were dehydrated in a graded ethanol series (90% EtOH, 96% EtOH, 100% EtOH) and embedded in SPURR epoxy resin (Serva, Heidelberg, Germany, #21,050). […]

HeLa GRASP55 KO cells [1] = experiment: Transmission electron microscopy of Golgi apparatus, HeLa GRASP55 KO; format: cell-based; conditions: 10 nM, 24 h
Procedure: as §4

HeLa GRASP55 KO cells [2] = conditions: 24 h treatment, GRASP55 KO vs wt
GRASP55 [3] = target: T3, GRASP55 (Homo sapiens, UniProt Q9H8Y8); experiment: Thermal proteome profiling temperature range (TPP-TR/RTSA), GRASP55; format: binding; set-up: GRASP55 protein quantification from the non-denatured protein fractions of prodigiosin or DMSO treated HeLa cells; endogenous in cells; host or cells: HeLa wt cells; conditions: 100 nM, 6 h, HeLa wt, collation ratio
Procedure: as §1, §2, §3

GRASP55 [4] = target: T3, GRASP55; experiment: CETSA (immunoblot quantification of non-denatured GRASP55); format: binding; set-up: GRASP55 protein quantification from the non-denatured protein fractions of prodigiosin or DMSO treated HeLa cells; endogenous in cells; host or cells: HeLa wt cells; conditions: 100 nM, 6 h, HeLa wt, collation ratio
Procedure: as §2, with “h. For thermal proteome profiling compound concentration range (TPP-CCR) experiments, 2.35*10^6 HeLa wt cells were seeded per 10 cm dish and, on the next day, incubated with the indicated final concentrations (Table 1) of prodigiosin (in final 0.1% v/v DMSO in cell culture medium) for 6 h.” for “h.”
as §3

## CCCCCC1=C/C(=C/c2[nH]c(-c3ccc[nH]3)cc2OC)N=C1C [Prodigiosin, prodigiosin]
JUNB
  meanlog2Ratio36.5C: 0.7033
EFEMP1
  meanlog2Ratio36.5C: 0.6341
JUN
  meanlog2Ratio36.5C: 0.7116
SDC4
  meanlog2Ratio36.5C: 0.3904
HeLa wt cells
  ratio between disorganized membranes and distinguishable Golgi stacks: clearly increased
HeLa GRASP55 KO cells [1]
  ratio between disorganized membranes and distinguishable Golgi stacks: no change
HeLa GRASP55 KO cells [2]
  IC50 of KO cells relative to wt cells: approximately threefold
GRASP55 [3]
  col.ratio GRASP55 (TPP-TR): 1.1
GRASP55 [4]
  col.ratio GRASP55 (CETSA): 5.5
